According to article PMC10258805, “Nonpeptidic Oxazole-Based Prolyl Oligopeptidase Ligands with Disease-Modifying Effects on α-Synuclein Mouse Models of Parkinson’s Disease” (Journal of Medicinal Chemistry, 2023):

Legend:
[1] = LC-MS detection of HUP-55 in the mouse brain; details: C57BL/6JRccHsd, in vivo, ip, 10 mg/kg
[2] = Stability studies (NMR, MS, polarimetry, long-term monitoring); details: over time; ca 5 years of storage at -18°C (Table S1)

Cc1nc(CCCc2ccccc2)oc1N1CCC[C@H]1C#N [HUP-55, (S)-1-(4-Methyl-2-(3-phenylpropyl)oxazol-5-yl)pyrrolidine-2-carbonitrile]
concentration at 15 min [1]: 1860 nM
concentration at 30 min [1]: 1110 nM
configurational stability (racemization) [2]: no racemization was observed
